# In US4447611A, “Benzo-fused and heterocyclic fused imidazole anti-ulcer agents” (American Home Products Corporation, priority 1982, dated 1984):
# Chains of the proteins cited; added tags and fusions are not shown.
# UniProt P47747, whole entry: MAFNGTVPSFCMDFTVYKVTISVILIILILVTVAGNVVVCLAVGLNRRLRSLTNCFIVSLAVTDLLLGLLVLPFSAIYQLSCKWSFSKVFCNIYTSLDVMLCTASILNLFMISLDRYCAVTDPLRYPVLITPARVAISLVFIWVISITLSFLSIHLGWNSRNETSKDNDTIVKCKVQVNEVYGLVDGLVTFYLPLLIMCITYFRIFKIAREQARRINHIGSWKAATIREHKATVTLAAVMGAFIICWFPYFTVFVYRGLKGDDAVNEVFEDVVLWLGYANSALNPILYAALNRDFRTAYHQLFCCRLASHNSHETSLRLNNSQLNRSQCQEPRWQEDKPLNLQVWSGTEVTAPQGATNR
# Target: T1, H2 histamine receptors (Cavia porcellus, UniProt P47747)
# T1 construct: from tissue; host or cells: guinea pig right atrium (isolated, spontaneously beating)
# Assay: guinea pig heart atrium test (histamine-induced positive chronotropic response in spontaneously beating right atrium)
# Type: cell-based
# Settings: 32° C., pH 7.4, 30 minutes after addition of compound, vs histamine dose-response, read-out: pA2 Value (apparent dissociation constant of the H2 antagonist) (converted)
# Protocol: The procedures for the results of these tests are presented at the end of the following examples, which will serve to illustrate the present invention.
# The guinea pig heart atrium test is carried out as follows:
# A guinea pig right atrium is suspended at 1 g. tension (isometric) in a thermostatically controlled (32° C.) tissue bath (10 ml) containing oxygenated (95% O2; 5% CO2) Krebs-Haenseleit buffer (pH 7.4). The tissue is allowed to stabilize over 1 hour. Individual contractions are recorded with a force-displacement transducer through a strain gauge coupler. A control dose-response curve to histamine in the above described tissue bath is obtained after which the tissue is washed 3 times and allowed to re-equilibrate to basal rate. The test compound is added to the tissue bath at the desired final concentration. Thirty minutes after addition of the compound, a fresh histamine dose response curve is again obtained. Then the response to histamine in the presence of antagonist is compared to the histamine control response. This procedure is repeated, using fresh tissues, for each concentration of antagonist tested. The result is expressed as the apparent dissociation constant (pA2) of the H2 antagonist as determined by standard procedures. Cimetidine is used as the standard for this test.
compound,measurement,value
CN/C(=N/CCSCc1nc[nH]c1C)NC#N [Cimetidine],Kb,316 nM
